Test results from patent US9353093B2, “Indole-1-carboxamides as kinase inhibitors” (Allergan, Inc., priority 2014, dated 2016).

Sequences of proteins named here, by UniProt entry; tags and fusion partners are left off. Residues count along the entry.
UniProt P35968, 786-1356: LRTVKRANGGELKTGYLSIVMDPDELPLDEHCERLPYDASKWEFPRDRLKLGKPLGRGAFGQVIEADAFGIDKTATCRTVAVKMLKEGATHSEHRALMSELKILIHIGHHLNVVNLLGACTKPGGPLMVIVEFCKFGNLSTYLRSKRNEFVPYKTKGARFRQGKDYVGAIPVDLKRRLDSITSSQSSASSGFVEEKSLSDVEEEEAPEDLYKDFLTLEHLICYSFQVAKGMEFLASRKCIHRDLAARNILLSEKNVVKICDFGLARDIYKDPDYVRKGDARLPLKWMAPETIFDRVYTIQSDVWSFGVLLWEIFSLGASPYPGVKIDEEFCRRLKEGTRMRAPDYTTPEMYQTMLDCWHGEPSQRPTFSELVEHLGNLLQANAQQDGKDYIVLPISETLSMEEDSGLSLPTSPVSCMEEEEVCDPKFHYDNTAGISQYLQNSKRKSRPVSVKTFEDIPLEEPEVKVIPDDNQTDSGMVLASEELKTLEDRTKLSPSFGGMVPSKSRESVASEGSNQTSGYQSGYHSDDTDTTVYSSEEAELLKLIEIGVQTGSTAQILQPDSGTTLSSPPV
UniProt P09619, 554-1106: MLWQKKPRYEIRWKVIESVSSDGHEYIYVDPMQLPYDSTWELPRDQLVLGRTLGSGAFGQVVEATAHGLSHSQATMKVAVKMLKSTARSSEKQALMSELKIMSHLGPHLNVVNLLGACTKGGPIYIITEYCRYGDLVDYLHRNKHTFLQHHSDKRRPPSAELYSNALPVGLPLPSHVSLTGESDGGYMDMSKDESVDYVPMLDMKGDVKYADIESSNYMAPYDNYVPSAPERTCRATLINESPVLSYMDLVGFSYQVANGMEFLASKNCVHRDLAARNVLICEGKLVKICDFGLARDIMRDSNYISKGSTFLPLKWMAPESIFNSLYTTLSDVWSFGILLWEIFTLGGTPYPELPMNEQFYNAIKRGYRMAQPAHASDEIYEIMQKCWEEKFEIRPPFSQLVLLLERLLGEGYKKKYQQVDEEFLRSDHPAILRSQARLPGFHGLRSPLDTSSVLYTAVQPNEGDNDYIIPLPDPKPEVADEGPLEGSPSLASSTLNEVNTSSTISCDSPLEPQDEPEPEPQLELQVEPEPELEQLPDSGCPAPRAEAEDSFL

What was measured:
[1] = system: VEGFR2 in HUVEC (human umbilical vein endothelial cells); assay: VEGFR2 Cellular Assay (FLIPR, VEGF induced increases in intracellular calcium); assay type: cell-based; settings: VEGF165 stimulation (10 ng/mL), 30 minutes pre-incubation, Fluo-4 calcium, read-out: Receptor VEGFR2 IC50
Method: VEGFR2 Cellular Assay Automated FLIPR (Fluorometric Imaging Plate Reader) technology was used to screen for inhibitors of VEGF induced increases in intracellular calcium levels in fluorescent dye loaded endothelial cells. HUVEC (human umbilical vein endothelial cells) (Clonetics) were seeded in 384-well fibronectin coated black-walled plates overnight @37° C./5% CO2. Cells were loaded with calcium indicator Fluo-4 for 45 minutes at 37° C. Cells were washed 2 times (EIx405, Biotek Instruments) to remove extracellular dye. For screening, cells were pre-incubated with test agents for 30 minutes, at a single concentration (10 uM) or at concentrations ranging from 0.0001 to 10.0 uM followed by VEGF165 stimulation (10 ng/mL). Changes in fluorescence at 516 nm were measured simultaneously in all 384 wells using a cooled CCD camera. Data were generated by determining max-min fluorescence levels for unstimulated, stimulated, and drug treated samples. IC50 values for test compounds were calculated from % inhibition of VEGF stimulated responses in the absence of inhibitor.

[2] = molecular target: purified cytoplasmic domain KDR protein (VEGFR2) (Homo sapiens (Human), UniProt P35968); assay: VEGFR2 Kinase Assay; assay type: biochemical; settings: 2.7 μM ATP, poly-Glu-Tyr (4:1) substrate, 15 minute incubation at 30° C.; read-out: Enzyme VEGFR2 IC50
Method: VEGFR2 Kinase Assay Biochemical KDR kinase assays were performed in 96 well microtiter plates that were coated overnight with 75 μg/well of poly-Glu-[…]:1) in 10 mM Phosphate Buffered Saline (PBS), pH 7.4. The coated plates were washed with 2 mls per well PBS+0.05% Tween-20 (PBS-T), blocked by incubation with PBS containing 1% BSA, then washed with 2 mls per well PBS-T prior to starting the reaction. Reactions were carried out in 100 μL reaction volumes containing 2.7 μM ATP in kinase buffer (50 mM Hepes buffer pH 7.4, 20 mM MgCl2, 0.1 mM MnCl2 and 0.2 mM Na3VO4). […] Reactions were initiated by the addition 20 ul per well of kinase buffer containing 200-300 ng purified cytoplasmic domain KDR protein (BPS Bioscience, San Diego, Calif.). Following a 15 minute incubation at 30° C., the reactions were washed 2 mls per well PBS-T. 100 μl of a monoclonal anti-phosphotyrosine antibody-peroxidase conjugate diluted 1:10,000 in PBS-T was added to the wells for 30 minutes. Following a 2 mls per well wash with PBS-Tween-20, 100 μl of O-Phenylenediamine Dihydrochloride in phosphate-citrate buffer, containing urea hydrogen peroxide, was added to the wells for 7-10 minutes as a colorimetric substrate for the peroxidase. The reaction was terminated by the addition of 100 μl of 2.5N H2SO4 to each well and read using a microplate ELISA reader set at 492 nm. IC50 values for compound inhibition were calculated directly from graphs of optical density (arbitrary units) versus compound concentration following subtraction of blank values.

[3] = molecular target: purified cytoplasmic domain PDGFR-b protein (PDGFRβ) (Homo sapiens (Human), UniProt P09619); assay: PDGFRβ Kinase Assay; assay type: biochemical; settings: 36 μM ATP, poly-Glu-Tyr (4:1) substrate, 60 minute incubation at 30° C.; read-out: Enzyme PDGFβ IC50
Method: Biochemical PDGFRβ kinase assays were performed in 96 well microtiter plates that were coated overnight with 75 μg of poly-Glu-Tyr (4:1) in 10 mM Phosphate Buffered Saline (PBS), pH 7.4. The coated plates were washed with 2 mls per well PBS+0.05% Tween-20 (PBS-T), blocked by incubation with PBS containing 1% BSA, then washed with 2 mls per well PBS-T prior to starting the reaction. Reactions were carried out in 100 μL reaction volumes containing 36 μM ATP in kinase buffer (50 mM Hepes buffer pH 7.4, 20 mM MgCl2, 0.1 mM MnCl2 and 0.2 mM Na3VO4). Test compounds were reconstituted in 100% DMSO and added to the reaction to give a final DMSO concentration of 5%. Reactions were initiated by the addition 20 ul per well of kinase buffer containing 200-300 ng purified cytoplasmic domain PDGFR-b protein (Millipore). Following a 60 minute incubation at 30° C., the reactions were washed 2 mls per well PBS-T. 100 μl of a monoclonal anti-phosphotyrosine antibody-peroxidase conjugate diluted 1:10,000 in PBS-T was added to the wells for 30 minutes. […] The reaction was terminated by the addition of 100 μl of 2.5N H2SO4 to each well and read using a microplate ELISA reader set at 492 nm. IC50 values for compound inhibition were calculated directly from graphs of optical density (arbitrary units) versus compound concentration following subtraction of blank values.

| Compound | IC50 [2] [nM] | IC50 [3] [nM] | IC50 [1] [nM] |
| --- | --- | --- | --- |
| NC(=O)n1c(-c2ccc(NC(=O)Nc3ccc(F)c(Cl)c3)cc2)cc2ccccc21 [Example 5, 2-[4-({[(3-chloro-4-fluorophenyl)amino]carbonyl}amino)phenyl]-1H-indole-1-carboxamide] | 8 |  | 97 |
| NC(=O)n1c(-c2ccc(NC(=O)Nc3cc(C(F)(F)F)ccc3F)cc2)cc2ccccc21 [Example 9, 2-{4-[({[2-fluoro-5-(trifluoromethyl)phenyl]amino}carbonyl)amino]phenyl}-1H-indole-1-carboxamide] | 11 |  | 139 |
| CC(C)c1cccc(NC(=O)Nc2ccc(-c3cc4ccccc4n3C(N)=O)cc2)c1 [Example 4, 2-[4-({[(3-isopropylphenyl)amino]carbonyl}amino)phenyl]-1H-indole-1-carboxamide] | 6 | 16 | 15 |
| NC(=O)n1c(-c2cc(NC(=O)Nc3ccc(Cl)c(C(F)(F)F)c3)cs2)cc2ccccc21 [Example 31, 2-{4-[({[4-chloro-3-(trifluoromethyl)phenyl]amino}carbonyl)amino]-2-thienyl}-1H-indole-1-carboxamide] | 131 |  | 7350 |

More lines, in order of falling IC50 [2], values ahead:

| IC50 [2] [nM] | IC50 [3] [nM] | Compound | IC50 [1] [nM] |
| --- | --- | --- | --- |
| 93 |  | NC(=O)n1c(-c2cc(NC(=O)Nc3cccc(C(F)(F)F)c3)cs2)cc2ccccc21 [Example 27, 2-{4-[({[3-(trifluoromethyl)phenyl]amino}carbonyl)amino]-2-thienyl}-1H-indole-1-carboxamide] | 1210 |
| 67 |  | Cc1cccc(NC(=O)Nc2csc(-c3cc4ccccc4n3C(N)=O)c2)c1 [Example 26, 2-[4-({[(3-methylphenyl)amino]carbonyl}amino)-2-thienyl]-1H-indole-1-carboxamide] | 508 |
